{
  "source": "ChEMBL document CHEMBL3227964",
  "about": "(J Med Chem, 1979)",
  "key": {"[1]": {"test_system": "Escherichia coli", "experiment": "Induction of sensitization to irradiation in Escherichia coli AB1157 under oxic condition assessed as reduction in colony formation at 1 mM measured after irradiation", "assay_type": "organism-based", "conditions": "in vivo, 1000 µM"}, "[2]": {"test_system": "Escherichia coli", "experiment": "Antimicrobial activity against Escherichia coli AB1157 assessed as reduction in colony formation at 1 mM", "assay_type": "organism-based", "conditions": "in vivo, 1000 µM"}},
  "data": [
    {"smiles": "O=[N+]([O-])c1cn(CCO)c([N+](=O)[O-])n1", "values": [
      {"measurement": "Activity", "setting": "[1]", "value": "Toxic"},
      {"measurement": "Activity", "setting": "[2]", "value": "Non-toxic"}
    ]}
  ]
}
